Source: patent US7482008B1, “Human T cell reactive feline protein (TRFP) isolated from house dust and uses therefor” (Merck Patent GmbH, priority 1989, dated 2009)

Test system: human IgE (cat allergic patient plasma)
Test: Direct binding ELISA of human IgE to coated antigen
Settings: percent of cat allergic patients with positive IgE binding
Procedure: The basic format of these ELISA assays was a direct binding assay wherein the antigen was coated onto the wells of a 96 well microtitre dish and then antibodies in solution are added and assayed for the binding capacity. The protocol for these assays was as follows:
The peptides were conjugated to HSA (human serum albumin) by two different methods based on their chemical structure. […] Both conjugates were filter purified and dialyzed against PBS. In the ELISA assay, the unbound coating antigens were removed and the wells were blocked with 0.5% gelatin in PBS, 200 μl/well for 2 hours at room temperature. The antibody solution was a pool of plasma samples from 20 patients that were skin test positive for commercial cat extract which was serially diluted with PBS-Tween 20 (PBS with 0.05% nonionic detergent Tween-Sigma, St. Louis Mo.) and 100 μl/well was added and incubated overnight at 4° C. (plasma dilutions are tested in duplicate). […] The second antibody (biotinylated goat anti-Human IgE, 1:1000 Kirkegaard & Perry Laboratories Inc. Gaithersburg, Md.), was added at 100 μl/well for one hour at room temperature. […] Plates are read on a Microplate EL 310 Autoreader (Biotek Instruments, Winooski, Vt.) with a 450 nm filter. The absorbance levels of duplicate wells were averaged.

Row | Substance | Positive Binding
1 | Peptide X/HSA: peptide X conjugated to HSA (human serum albumin), EDC | 0%
2 | Peptide Y/HSA: peptide Y conjugated to HSA through its cysteine residue, sulfo-SMCC | 0%
